{
  "source": "ChEMBL document CHEMBL2424635",
  "about": "“Discovery of novel histidine-derived lipo-amino acids: applied in the synthesis of ultra-short antimicrobial peptidomimetics having potent antimicrobial activity, salt resistance and protease stability” (Eur J Med Chem, 2013)",
  "key": {"[1]": {"tested_on": "Pseudomonas aeruginosa", "assay": "Antibacterial activity against Pseudomonas aeruginosa KCTC 1637 assessed as growth inhibition after 18 to 20 hrs by broth microdilution method in presence of NaCl", "format": "functional"}, "[2]": {"tested_on": "Staphylococcus aureus", "assay": "Antibacterial activity against Staphylococcus aureus KCTC 1621 assessed as growth inhibition after 18 to 20 hrs by broth microdilution method in presence of NaCl", "format": "functional"}, "[3]": {"tested_on": "Escherichia coli", "assay": "Antibacterial activity against Escherichia coli KCTC 1682 assessed as growth inhibition after 18 to 20 hrs by broth microdilution method", "format": "functional"}, "[4]": {"tested_on": "Bacillus subtilis", "assay": "Antibacterial activity against Bacillus subtilis KCTC 3068 assessed as growth inhibition after 18 to 20 hrs by broth microdilution method in presence of NaCl", "format": "functional"}, "[5]": {"tested_on": "Staphylococcus epidermidis", "assay": "Antibacterial activity against Staphylococcus epidermidis KCTC 1917 assessed as growth inhibition after 18 to 20 hrs by broth microdilution method in presence of NaCl", "format": "functional"}, "[6]": {"tested_on": "Salmonella typhimurium", "assay": "Antibacterial activity against Salmonella typhimurium KCTC 1926 assessed as growth inhibition after 18 to 20 hrs by broth microdilution method in presence of NaCl", "format": "functional, Salmonella enterica subsp. enterica serovar Typhimurium", "conditions": "Salmonella enterica"}, "[7]": {"tested_on": "Staphylococcus epidermidis", "assay": "Antibacterial activity against Staphylococcus epidermidis KCTC 1917 assessed as growth inhibition after 18 to 20 hrs by broth microdilution method", "format": "functional"}, "[8]": {"assay": "Hemolytic activity in human RBC assessed as hemoglobin release after 1 hr", "format": "ADME, cell-based, Erythrocyte", "conditions": "red blood cells (RBC)"}, "[9]": {"tested_on": "Staphylococcus aureus", "assay": "Antibacterial activity against Staphylococcus aureus KCTC 1621 assessed as growth inhibition after 18 to 20 hrs by broth microdilution method", "format": "functional"}, "[10]": {"tested_on": "Pseudomonas aeruginosa", "assay": "Antibacterial activity against Pseudomonas aeruginosa KCTC 1637 assessed as growth inhibition after 18 to 20 hrs by broth microdilution method", "format": "functional"}, "[11]": {"tested_on": "Escherichia coli", "assay": "Antibacterial activity against Escherichia coli KCTC 1682 assessed as growth inhibition after 18 to 20 hrs by broth microdilution method in presence of NaCl", "format": "functional"}, "[12]": {"tested_on": "Salmonella typhimurium", "assay": "Antibacterial activity against Salmonella typhimurium KCTC 1926 assessed as growth inhibition after 18 to 20 hrs by broth microdilution method", "format": "functional, Salmonella enterica subsp. enterica serovar Typhimurium", "conditions": "Salmonella enterica"}, "[13]": {"tested_on": "Bacillus subtilis", "assay": "Antibacterial activity against Bacillus subtilis KCTC 3068 assessed as growth inhibition after 18 to 20 hrs by broth microdilution method", "format": "functional"}},
  "data": [
    {"smiles": "CC[C@H](C)[C@H](NC(=O)CN)C(=O)NCC(=O)N[C@@H](C)C(=O)N[C@H](C(=O)N[C@@H](CC(C)C)C(=O)N[C@@H](CCCCN)C(=O)N[C@H](C(=O)N[C@@H](CC(C)C)C(=O)N[C@H](C(=O)N[C@H](C(=O)NCC(=O)N[C@@H](CC(C)C)C(=O)N1CCC[C@H]1C(=O)N[C@@H](C)C(=O)N[C@@H](CC(C)C)C(=O)N[C@H](C(=O)N[C@@H](CO)C(=O)N[C@@H](Cc1c[nH]c2ccccc12)C(=O)N[C@H](C(=O)N[C@@H](CCCCN)C(=O)N[C@@H](CCCNC(=N)N)C(=O)N[C@@H](CCCCN)C(=O)N[C@@H](CCCNC(=N)N)C(=O)N[C@@H](CCC(N)=O)C(=O)N[C@@H](CCC(N)=O)C(N)=O)[C@@H](C)CC)[C@@H](C)CC)[C@@H](C)O)[C@@H](C)O)C(C)C)C(C)C", "note": "[MELITTIN]", "values": [
      {"measurement": "MIC", "setting": "[1]", "value": 8, "unit": "µg/mL"},
      {"measurement": "MIC", "setting": "[2]", "value": 2, "unit": "µg/mL"},
      {"measurement": "MIC", "setting": "[3]", "value": 8, "unit": "µg/mL"},
      {"measurement": "MIC", "setting": "[4]", "value": 8, "unit": "µg/mL"},
      {"measurement": "MIC", "setting": "[5]", "value": 4, "unit": "µg/mL"},
      {"measurement": "MIC", "setting": "[6]", "value": 16, "unit": "µg/mL"},
      {"measurement": "MIC", "setting": "[7]", "value": 8, "unit": "µg/mL"},
      {"measurement": "HC50 at 1 h", "setting": "[8]", "value": 10.5, "unit": "µg/mL"},
      {"measurement": "MIC", "setting": "[9]", "value": 4, "unit": "µg/mL"},
      {"measurement": "MIC", "setting": "[10]", "value": 8, "unit": "µg/mL"},
      {"measurement": "MIC", "setting": "[11]", "value": 8, "unit": "µg/mL"},
      {"measurement": "MIC", "setting": "[12]", "value": 8, "unit": "µg/mL"},
      {"measurement": "MIC", "setting": "[13]", "value": 4, "unit": "µg/mL"}
    ]}
  ]
}
